Experimental data: article PMC9949698, “Visible-Light-Controlled Histone Deacetylase Inhibitors for Targeted Cancer Therapy” (Journal of Medicinal Chemistry, 2023)

Tested on: HeLa cells
Assay: HeLa cell viability, MTS assay, dark or preillumination
Format: cell-based
Conditions: positive control
Text: Given the promise of HDAC inhibitors to induce apoptosis to cancer cells, we proceeded to study the effects of the best analogues in HeLa cells. We first confirmed that representative compounds were able to inhibit HDACs in cells in a whole-cell HDAC assay, which accounts for activity against class 1 and 2b HDAC isoforms (Figure S22). We then proceeded to evaluate the effect of the compounds in a viability assay against HeLa cells. The compounds were either kept in the dark or illuminated before addition onto preseeded cells and then incubated for 24–48 h before the proportion of live cells was measured with an MTS assay.
HeLa, MCF7, and HT29 cells were maintained in adherent cultures in DMEM supplemented with 10% FBS. KG1 cells were maintained in a suspension culture in IMDM supplemented with 20% FBS.
Stock solutions of the compounds were heated to 60 or 80 °C to obtain solutions with the maximum amount of the trans isomer (dark). […]
Viability of HeLa, MCF7, and […] cells was determined with a CellTiter 96 assay (Promega), according to the manufacturer’s instructions. Briefly, 20 μL of CellTiter 96 reagent was added to each well, the plates were incubated at 37 °C for 2 h, and the absorbance at 490 nm was recorded. Viability is expressed as a percentage with respect to the nontreated cells.

**Q.** How did the “effect on cells after treatment for 24 h” value turn out when `O=C(CCCCCCC(=O)Nc1ccccc1)NO` [SAHA, reference compound] was run?
**A.** Its value is “induced cell death”.
